Values of other authors as cited in patent US10350231B2, “Use of cladribine for treating autoimmune inflammatory disease” (Chord Therapeutics S.a.r.l., priority 2014, dated 2019).

Test system: NMO patients
Details: cited from earlier work

B1: interferon beta: cytokine interferon beta, marketed therapy for relapsing MS (protein, UniProt P01574 22-187, looked up)
Interferon beta: MSYNLLGFLQRSSNFQCQKLLWQLNGRLEYCLKDRMNFDIPEEIKQLQQFQKEDAALTIYEMLQNIFAIFRQDSSSTGWNETIVENLLANVYHQINHLKTVLEEKLEKEDFTRGKLMSSLHLKRYYGRILHYLKAKEYSHCAWTIVRVEILRNFYFINRLTGYLRN
For B1, the “effect on NMO” value is given as “exacerbate NMO”.
